Target: CXCR4 (Homo sapiens, UniProt P61073)
Experiment: Ca2+-assay method 2 (Flexstation, SDF-1 induced calcium mobilization)
Type: cell-based
Parameters: expressed in transfected cells; host or cells: mouse pre-B cell line 300-19
Settings: IC50 (nM) Ca^2+ assay, method 2 (Ex. 54-160), mouse pre-B cell line 300-19 with human CXCR4, 10 nM SDF-1
Description: 2.2. Ca^2+-Assay: CXCR4-Antagonizing Activity of the Peptides.
The cells were batch loaded with the Calcium 3 Assay kit (Molecular Devices) in assay buffer (Hanks Balanced salt solution, HBSS, 20 mM HEPES, pH 7.4, 0.1% BSA) for 1 h at room temperature and then 200,000 labeled cells were dispensed into black 96 well assays plates (Costar No. 3603). A 20-fold concentrated solution of peptide in assay buffer was added to the cells and the whole plate was centrifuged to settle the cells to the bottom of the wells. Calcium mobilization induced by 10 nM stromal-derived factor-1 (SDF-1) was measured in the Flexstation 384 (excitation, 485 nM; emission, 525 nM) for 90 seconds. A maximal change in fluorescence response above baseline was used to calculate antagonist activity. The data for dose response curves (antagonist concentration versus % maximum response) were fitted to a four parameter logistic equation using SoftmaxPro 4.6 (Molecular Devices), from which IC50% values were calculated.

The chains behind the UniProt entries cited, without tags or fusion partners.
UniProt P61073, whole entry: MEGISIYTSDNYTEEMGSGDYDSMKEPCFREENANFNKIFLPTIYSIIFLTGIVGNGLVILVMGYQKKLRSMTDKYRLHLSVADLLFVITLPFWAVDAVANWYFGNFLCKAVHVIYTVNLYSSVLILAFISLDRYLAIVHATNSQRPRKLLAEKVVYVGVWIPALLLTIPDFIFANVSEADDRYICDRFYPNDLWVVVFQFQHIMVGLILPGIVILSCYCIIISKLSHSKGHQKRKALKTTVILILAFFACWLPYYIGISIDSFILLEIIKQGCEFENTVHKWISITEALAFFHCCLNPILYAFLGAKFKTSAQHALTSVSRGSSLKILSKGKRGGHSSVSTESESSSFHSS

SMILES | IC50
N=C(N)NCCC[C@@H]1NC(=O)[C@@H]2CSSC[C@H](NC(=O)[C@H](Cc3c[nH]c4ccccc34)NC(=O)[C@H](CCCNC(=N)N)NC(=O)[C@H](CCCNC(=N)N)NC(=O)[C@H]3CCCN3C(=O)CNC1=O)C(=O)N[C@@H](Cc1ccc(O)cc1)C(=O)N[C@@H](CCC(N)=O)C(=O)N[C@@H](CCCCN)C(=O)NCC(=O)N[C@@H](Cc1ccc(O)cc1)C(=O)N[C@H](CCCCN)C(=O)NCC(=O)N[C@@H](Cc1ccc(O)cc1)C(=O)NCC(=O)N[C@@H](Cc1ccc(O)cc1)C(=O)N[C@@H](CCCNC(=N)N)C(=O)N[C@@H](CCCNC(N)=O)C(=O)N2 [Ex. 157] | 11.3 nM
N=C(N)NCCC[C@@H]1NC(=O)[C@@H]2CSSC[C@H](NC(=O)[C@H](Cc3c[nH]c4ccccc34)NC(=O)[C@H](CCCNC(=N)N)NC(=O)[C@H](CCCNC(=N)N)NC(=O)[C@H]3CCCN3C(=O)CNC1=O)C(=O)N[C@@H](Cc1ccc(O)cc1)C(=O)N[C@@H](CCC(N)=O)C(=O)N[C@@H](CCCCN)C(=O)NCC(=O)N[C@@H](Cc1ccc(O)cc1)C(=O)N[C@@H](CCCCN)C(=O)NCC(=O)N[C@@H](Cc1ccc(O)cc1)C(=O)NCC(=O)N[C@@H](Cc1ccc(O)cc1)C(=O)N[C@@H](CCCNC(=N)N)C(=O)N[C@@H](CCCNC(N)=O)C(=O)N2 [Ex. 156] | 49 nM
N=C(N)NCCC[C@@H]1NC(=O)[C@@H]2CSSC[C@H](NC(=O)[C@H](Cc3c[nH]c4ccccc34)NC(=O)[C@H](CCCNC(=N)N)NC(=O)[C@H](CCCNC(=N)N)NC(=O)[C@@H]3CCCN3C(=O)CNC1=O)C(=O)N[C@@H](Cc1ccc(O)cc1)C(=O)N[C@@H](CCC(N)=O)C(=O)N[C@@H](CCCCN)C(=O)NCC(=O)N[C@@H](Cc1ccc(O)cc1)C(=O)N1CCC[C@@H]1C(=O)N1CCC[C@H]1C(=O)N[C@@H](Cc1ccc(O)cc1)C(=O)NCC(=O)N[C@@H](Cc1ccc(O)cc1)C(=O)N[C@@H](CCCNC(=N)N)C(=O)N[C@@H](CCCNC(N)=O)C(=O)N2 [Ex. 158] | 250 nM
C[C@@H](O)[C@@H]1NC(=O)[C@H](CCCNC(=N)N)NC(=O)[C@H](Cc2ccc(O)cc2)NC(=O)CNC(=O)[C@H](Cc2ccc(O)cc2)NC(=O)[C@@H]2CCCN2C(=O)[C@H]2CCCN2C(=O)[C@H](Cc2ccc(O)cc2)NC(=O)CNC(=O)[C@H](CCCCN)NC(=O)[C@H](CCC(N)=O)NC(=O)[C@H](Cc2ccc(O)cc2)NC(=O)[C@@H]2CSSC[C@H](NC1=O)C(=O)N[C@@H](CCCNC(=N)N)C(=O)NCC(=O)N1CCC[C@H]1C(=O)N[C@@H](CCCNC(=N)N)C(=O)N[C@@H](CCCNC(=N)N)C(=O)N[C@@H](Cc1ccc(O)cc1)C(=O)N2 [Ex. 159] | 118 nM
